Source: patent US8501744B2, “Piperazine compounds” (Amura Therapeutics, Limited, priority 2008, dated 2013)

Protein sequences, listed by entry. Tags and fused reporters are not part of them. Residues count along the entry.
UniProt P43235, 115-329 limits assumed: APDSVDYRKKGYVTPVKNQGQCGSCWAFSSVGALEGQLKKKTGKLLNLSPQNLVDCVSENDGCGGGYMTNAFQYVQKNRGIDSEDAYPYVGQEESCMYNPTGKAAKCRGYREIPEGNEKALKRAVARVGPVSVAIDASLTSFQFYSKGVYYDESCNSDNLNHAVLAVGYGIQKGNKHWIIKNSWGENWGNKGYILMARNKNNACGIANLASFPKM

Molecular target: Human recombinant cathepsin K (Homo sapiens (Human), UniProt P43235)
Assay: In vitro cathepsin Ki inhibition measurements
Format: biochemical
Settings: read-out: Ki (nM) vs Human Cathepsin K, prior art WO-A-02057270 examples

Compound | Ki [nM]
CC(C)(C)c1ccc(C(=O)N[C@@H](Cc2ccc(O)cc2)C(=O)N2CC[C@H]3OCC(=O)[C@H]32)cc1 | > 4000
O=C(N[C@@H](Cc1ccc(O)cc1)C(=O)N1CC[C@H]2OCC(=O)[C@H]21)c1ccc(-c2ccccc2)cc1 | > 50000
